For one data set, the system named is human lymphocytes. As to conditions: 10 mM pretreatment for 48 hours, 10 μM SM; 48 hours after exposure; cited from earlier work.
In data set [1] the test system is SVK-14 human keratinocyte cells.
The test system is the same in data set [2]. As to conditions: treatment without SM.
A further data set in a line: Water solubility. As to conditions: 20° C.; 1 g dissolves in 11 ml.
The nature of data set [3]: Reactivity with radiolabelled sulphur mustard in THF, TLC autoradiography. The conditions noted are these: one hour after addition of 35S-SM.

The source of these data is US6375962B2, “Barrier cream comprising hexamethylenetetramine or derivative thereof” (dated 2002).

L-oxothiazolidine-4-carboxylate: the “more viable than SM only treated cells” value with human lymphocytes is 20%.

With `N[C@@H](CCC(=O)N[C@@H](CS)C(=O)NCC(=O)O)C(=O)O`, in data set [1] (8 mM GSH singly, 72 hour time-point), the “increase in viability compared to SM control” value was found to be 19.8%. For the same compound, the “increase in viability compared to the SM control” value in data set [1] (16 mM GSH, 72 hours, p<0.001) is listed as 20.6%. In addition, in data set [1] (treatment without SM, over the course of the experiment), the “cellular function measured by neutral red uptake” value was “nor alter cellular function”. In addition, in data set [2], the “growth of the cells (crystal violet assay) compared to control” value was “did not significantly alter the growth”.

Turning to 2 Pentafluorobenzyl Hexaminium Bromide, the Water solubility in the data set “Water solubility” stood at 90 mg/mL. The “free H (SM) on TLC autoradiograph” value in data set [3] was “No free H is present”.
